Key:
[1] = target: recombinant human mu (MOR) opioid receptor (Homo sapiens, UniProt P35372); assay: Radioligand competition binding assay, mu opioid receptor (MOR); conditions: for Mu receptor % inhibition at single concentration, % inhibition @ 10 μM: 10 μM test compound, [3H]naloxone 4 nM, inhibition of specific binding; for IC50: read-out: Mu receptor binding IC50, CHO-K1 membranes, [3H]naloxone
[2] = target: recombinant human kappa (KOR) opioid receptor (Homo sapiens, UniProt P41145); assay: Radioligand competition binding assay, kappa opioid receptor (KOR); conditions: for IC50: read-out: Kappa receptor binding IC50, [3H]diprenorphine 1 nM, CHO-K1 membranes, compounds tested as HCl salts; for Ki: read-out: Kappa receptor binding Ki, Cheng Prusoff correction with experimental Kd of radioligand
[3] = target: KOR (kappa opioid receptor) (Homo sapiens, UniProt P41145); conditions: read-out: Kappa receptor activity EC50 cAMP; inhibition of cAMP accumulation, forskolin 20 μM, 45 min
[4] = Hepatic clearance using rat cryopreserved hepatocytes; conditions: 500 nM; for In vitro Hepatocyte Clearance, Rat CL: predicted in vivo hepatic clearance by well-stirred model
[5] = Hepatic clearance using human cryopreserved hepatocytes; conditions: 500 nM; for In vitro Hepatocyte Clearance, Human CL: predicted in vivo hepatic clearance by well-stirred model

Structure (SMILES)	Mu receptor % inhibition at single concentration, % inhibition @ 10 μM [1] [%]	IC50 [2] [nM]	Ki [2] [nM]	EC50 [3] [nM]	In vitro Hepatocyte Clearance, Rat % hep Blood flow [4] [%]	In vitro Hepatocyte Clearance, Rat CL [4] [mL/min/kg]	IC50 [1] [nM]	In vitro Hepatocyte Clearance, Human % hep Blood flow [5] [%]	In vitro Hepatocyte Clearance, Human CL [5] [mL/min/kg]
COC(C(=O)N(C)[C@H](CN1CCCC1)c1ccccc1)c1ccccc1.Cl (some centres unmarked)	88								
CN(C(=O)Cc1ccc(O)cc1)[C@H](CN1CCCC1)c1ccccc1	64.8	66.4	15.3	13.1					
CN(C(=O)Cc1ccc(Cl)c(Cl)c1)[C@H](CN1CC[C@H](O)C1)c1ccccc1	99.8	0.13	0.03	0.03	85.0	51.0	10.6	89.0	20.7
CN(C(=O)Cc1ccc(C(F)(F)F)cc1)[C@H](CN1CC[C@H](O)C1)c1ccccc1		0.16	0.04	0.009					
CN(C(=O)Cc1ccc(Cl)c(Cl)c1)[C@H](CN)c1ccccc1		59.8	7.8	16.4			178		
CN(C(=O)Cc1ccc(Cl)c(Cl)c1)[C@H](CN1CCCC1)c1ccccc1 [ICI-199,441, reference compound]	96.3	0.35	0.08	0.05			137		
CN(C(=O)Cc1ccc(Cl)nc1)[C@H](CN1CCCC1)c1ccccc1	73.7	3.95	0.91	0.92					
CN(C(=O)C(c1ccccc1)c1ccccc1)[C@H](CN1CC[C@H](O)C1)c1ccccc1 [Asimadoline, asimadoline, reference compound]	46.3	11.5	2.6	0.41			11600		
CN(C(=O)Cc1ccc(F)cc1F)[C@H](CN1CCCC1)c1ccccc1	67.7	4.86	1.12	0.93					
CN(C(=O)Cc1ccc(Cl)c(Cl)c1)[C@H](CN1CCC(F)(F)C1)c1ccccc1.Cl	55.6								
CN(C(=O)Cc1ccc(F)c(F)c1)[C@H](CN1CCCC1)c1ccccc1		2.28	0.3	0.09					
CN(C(=O)Cc1ccc(Cl)c(Cl)c1)[C@H](CN1C[C@@H](O)[C@H](O)C1)c1ccccc1.Cl	78.0								
CN(C(=O)Cc1ccccn1)[C@H](CN1CCCC1)c1ccccc1	50.4	48.5	11.2	30.1					
CN(C(=O)Cc1ccc(Cl)c(Cl)c1)[C@H](CN1CCC(F)(F)C1)c1ccccc1		34.6	7.98	2.34					
CN(C(=O)Cc1ccc(C(F)(F)F)cc1)[C@H](CN1CC[C@H](O)C1)c1ccccc1.Cl	101.4								
CN(C(=O)Cc1ccc(Cl)c(Cl)c1)[C@H](CN1CC[C@H](O)C1)c1cccc(N)c1	101	0.23	0.05	0.02					
COCCO[C@H]1CCN(C[C@H](c2ccccc2)N(C)C(=O)Cc2ccc(Cl)c(Cl)c2)C1.Cl	79.1				83.0	50.1		82.0	19.0
CN(C(=O)Cc1ccc(Cl)c(Cl)c1)[C@H](CN1C[C@@H](O)[C@H](O)C1)c1ccccc1		1.08	0.25	0.18					
CN(C(=O)Cc1ccccc1N)[C@H](CN1CC[C@H](O)C1)c1ccccc1	47.3	10.5	2.43	1.12					
CN(C(=O)Cc1ccc(F)c(F)c1)[C@H](CN1CCCC1)c1ccccc1.Cl	75.0								
COCCO[C@H]1CCN(C[C@H](c2ccccc2)N(C)C(=O)Cc2ccc(Cl)c(Cl)c2)C1		7.5	1.7	1.2					
CN(C(=O)Cc1ccccc1[N+](=O)[O-])[C@H](CN1CC[C@H](O)C1)c1ccccc1	67.4	2.9	0.67	0.47					
COC(C(=O)N(C)[C@H](CN1CCCC1)c1ccccc1)c1ccccc1 (some centres unmarked)		12.2	2.82	0.52					
CN(C(=O)Cc1ccc(Cl)c(Cl)c1)[C@H](CN)c1ccccc1.Cl	95.6								

From patent publication US11111214B2 (priority 2013, dated 2021)
